# Bioassay records from PubChem.
# Rows were chosen to be rich in hits. Some 4.2% of all compounds tested hit in one or more screens of this group.
# MC4R ag barr: human MC4R agonism via beta-arrestin | P32245 | U2OS MC4R beta-arrestin complementation, luminescence; percent of melanotan II response, DMSO zero | actives 0.98% (n = 360,000) | AID 540308 | activation, % at 8.9 µM;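 active = activation above a per-plate cutoff, the mean activation of sample wells on that plate plus 3 SD, cut at about 8% in these data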
# NALP1 yeast inh: blocks the NALP1 inflammasome reconstituted in yeast. S. cerevisiae NALP1/ASC/caspase-1 growth, X-gal OD620, 72 h. inhibition, % at 10 µM. actives 0.61% (n = 280,000). AID 2071; in the data active = inhibition mostly above about 24%, no sharp cut-off; inactive = mostly below about 32%
# MC4R antag cAMP: antagonists of human melanocortin 4 receptor (MC4R); P32245; MC4R-expressing cells, MTII-stimulated cAMP, LANCE TR-FRET; inhibition, % at 6.5 µM; actives 0.48% (n = 360,000); AID 540295;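 active = inhibition above its plate's cutoff, the mean of tested wells on that plate plus 3 SD, cut at about 29% in these data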;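 also: 0% = Melanotan II alone and 100% = Melanotan II plus saturating MCL0020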
#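 Assay system: U2OS-MC4R stable cell line; Also added: Melanotan II; Technique: Eu-cAMP/anti-cAMP TR-FRET, emission 671 nm; Times: 30-min compound, 1-h challenge, 1-h detection, room temperature.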
# ALR H2O2 inh: blocks human ALR sulfhydryl oxidase activity. P55789. purified ALR, DTT oxidation, H2O2 HRP-luminol luminescence. 290,000 compounds, 3.8% hits. inhibition, % (concentration not given with the values);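 active means mean and each replicate at 75% or more; inconclusive means only one of the two met; inactive means neither met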;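 further: stock transfer was 7.5 nL into about 7.5 µL; 0% = neutral wells and 100% = wells with inactivated enzyme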
# HDAC3 inh: human HDAC3 inhibition; O15379; recombinant HDAC3, fluorogenic peptide/trypsin coupled, fluorescence; inhibition, % at 8.3 µM; actives 0.15% (n = 320,000); AID 2718; in the data active = inhibition above about 26%, passing the limit was not always enough; inconclusive = no clear call, values can overlap the other calls
# Yeast UUG start-1: modulators of start codon recognition fidelity in yeast; S. cerevisiae UUG-firefly luciferase reporter, luminescence/redox ratio; activity score, % at 18.7 µM; hit rate 0.13% among 350,000; AID 602363;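 active = replicate mean at a twofold rise or more, about +100% in these data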;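 note: firefly luciferase made from a UUG start codon reports start codon fidelity; reporter light over untreated wells divided by growth signal over untreated wells; some hits fall short of that in this replicate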
# Yeast UUG start-2: yeast start codon fidelity modulation | shares compounds with Yeast UUG start-1 | S. cerevisiae UUG-start firefly luciferase, luminescence, 4 h; 100% means double the DMSO signal | activation, % at 38 µM | 540 tested, under 10 active;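 active = signal increase whose fitted curve reaches an absolute level of 40 at a concentration under 10 µM; inactive = activity opposite to the expected increase, or the rest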
# The depositor's hits bear a star; i = inactive; ? = inconclusive; nt = not tested or not shown.
MC4R ag barr | NALP1 yeast inh | MC4R antag cAMP | ALR H2O2 inh | SMILES | HDAC3 inh | Yeast UUG start-1 | Yeast UUG start-2
0 | 9 | 8 | 14 | COC(C#CCCN(C)C)(c1ccccc1)c1ccccc1 | 3 | nt | -3
-3 | 8 | -2 | 4 | CN(C)CC#CCC(O)(c1ccccc1)c1ccccc1 | 2 | nt | nt
-2 | 1 | 8 | -13 | CN1CCN(CCC2Oc3cc([N+](=O)[O-])ccc3NC2=O)CC1 (stereo not drawn) | 7 | nt | 16
-2 | -10 | 3 | nt | O=C1Nc2ccc([N+](=O)[O-])cc2OC1CCN1CCOCC1 (stereo not drawn) | 3 | -11 | 6
1 | 16 | 8 | 94* | O=C1Nc2ccc([N+](=O)[O-])cc2OC1CCN1CCN(c2ccccc2)CC1 (stereo not drawn) | 4 | -25 | -6
-3 | -8 | 6 | 0 | COc1ccc(C/C(C)=N/NC(=O)c2ccc(C)cc2C)cc1 | -13 | 539* | -3
nt | nt | nt | nt | C[C@@H]1CN([C@@H](C)CO)C(=O)c2cc(/C=C/c3ccccc3)cnc2O[C@H]1CN(C)C(=O)Nc1ccccc1F | nt | 8 | nt
3 | -46 | -8 | -2 | C=CCO/N=C(/C)c1c(O)c(CC)c(-c2ccccc2)n(-c2ccccc2)c1=O | -2 | 280* | -4
2 | 9 | 2 | 6 | CCc1c(O)c(/C(C)=N\O)c(=O)n(-c2ccccc2)c1-c1ccccc1 | -4 | -13 | nt
nt | nt | nt | nt | COCC(=O)N(C)C[C@@H]1Oc2ncc(Br)cc2C(=O)N([C@H](C)CO)C[C@H]1C | nt | -3 | nt
-1 | -8 | 1 | -4 | CCN(C(=O)c1cc(Cl)ccc1OC)c1ccccc1 | 1 | -5 | nt
0 | 27 | 7 | 1 | CCN(C(=O)c1cc(Cl)ccc1OC)c1ccccc1C | -2 | 128* | 4

# Random excerpt: 2 records from the list
MC4R ag barr | NALP1 yeast inh | MC4R antag cAMP | ALR H2O2 inh | SMILES | HDAC3 inh | Yeast UUG start-1 | Yeast UUG start-2
-1 | -8 | 1 | -4 | CCN(C(=O)c1cc(Cl)ccc1OC)c1ccccc1 | 1 | -5 | nt
nt | nt | nt | nt | COCC(=O)N(C)C[C@@H]1Oc2ncc(Br)cc2C(=O)N([C@H](C)CO)C[C@H]1C | nt | -3 | nt

# Returning to the listing, starting two compounds before the break.
MC4R ag barr | NALP1 yeast inh | MC4R antag cAMP | ALR H2O2 inh | SMILES | HDAC3 inh | Yeast UUG start-1 | Yeast UUG start-2
-1 | -8 | 1 | -4 | CCN(C(=O)c1cc(Cl)ccc1OC)c1ccccc1 | 1 | -5 | nt
0 | 27 | 7 | 1 | CCN(C(=O)c1cc(Cl)ccc1OC)c1ccccc1C | -2 | 128* | 4
0 | nt | 3 | 48 | Cc1occc1C(=O)Nc1ccccc1NC(=O)c1ccoc1C | 0 | 198* | -2
nt | nt | nt | nt | Cc1ccc(S(=O)(=O)N(C)C[C@@H]2Oc3c(NS(=O)(=O)c4ccc(F)cc4)cccc3C(=O)N([C@H](C)CO)C[C@H]2C)cc1 | nt | 37 | nt
1 | 13 | 2 | 0 | CC(=O)Nc1ccc(S(=O)(=O)NCCC(=O)Nc2ccc(C)c(F)c2)cc1 | -4 | 200* | -1
1 | -8 | 8 | 26 | O=C(NC(=S)Nc1cccc(C(F)(F)F)c1)c1ccc2nonc2c1 | ? | 139* | -8
-1 | 14 | -3 | nt | Cn1nc(CC(=O)N2CCN(c3ccccc3)CC2)c2ccccc2c1=O | nt | -8 | -2
-1 | -8 | -7 | -5 | CC1CCN(C(=O)Cc2nn(C)c(=O)c3ccccc23)CC1 | 3 | -9 | 4
0 | 11 | -4 | -3 | O=C(O)c1nn(CC(=O)N2CCN(c3ccccc3)CC2)c(=O)c2ccccc12 | -3 | -10 | nt
-3 | 2 | 1 | -3 | CCOC(=O)Cc1nn(C)c(=O)c2ccccc12 | -5 | -11 | nt
nt | nt | nt | nt | C[C@H]1CN([C@@H](C)CO)S(=O)(=O)c2ccc(-c3ccc(C#N)cc3)cc2O[C@H]1CN(C)Cc1ccccn1 | nt | -4 | nt
3 | 6 | -9 | -28 | O=C(c1ccc(COc2ccc(Cl)cc2)cc1)N1CCCCC1 | 9 | 410* | 3
1 | 2 | 5 | nt | COc1ccccc1NC(=O)COc1ccc(-c2nn(C)c(=O)c3ccccc23)cc1 | 1 | 1 | nt
0 | 7 | 7 | 6 | Cn1nc(CC(=O)Nc2ccc(N3CCN(C(=O)OC(C)(C)C)CC3)cc2)c2ccccc2c1=O | -3 | 736* | 4
-1 | 18 | 7 | -10 | Cc1csc(NC(=O)Cc2nn(C)c(=O)c3ccccc23)n1 | -8 | -18 | -7
3 | 11 | 9 | -9 | CC(C)(C)OC(=O)N1CCN(c2ccc(NC(=O)Cn3nnc(-c4ccccc4)n3)cc2)CC1 | -1 | -3 | nt
2 | 6 | 8 | nt | Cn1nc(CC(=O)NCc2ccc(F)cc2)c2ccccc2c1=O | 2 | -12 | nt
0 | 14 | 8 | -18 | COc1cc(NC(=O)Cc2nn(C)c(=O)c3ccccc23)cc(OC)c1 | 5 | -9 | 4
-1 | nt | 3 | -20 | Cc1csc(NC(=O)Cc2ccc(Cl)cc2)n1 | 0 | -28 | nt
-3 | 14 | -3 | -16 | COc1ccccc1NC(=O)Cc1nn(C)c(=O)c2ccccc12 | 2 | -19 | -1
nt | nt | nt | nt | CN1C(=O)c2cc(NC(=O)Cc3cccs3)ccc2OC[C@H]2O[C@@H](CC(=O)NCC3CC3)CC[C@H]21 | nt | 6 | nt
nt | nt | nt | nt | C[C@@H]1CN([C@@H](C)CO)C(=O)c2cc(NC(=O)CCN3CCOCC3)ccc2O[C@H]1CN(C)C(=O)Nc1ccc(F)cc1 | nt | -1 | nt
nt | nt | nt | nt | C[C@@H]1CCCCO[C@@H](CN(C)C(=O)NC2CCCCC2)[C@H](C)CN([C@@H](C)CO)C(=O)c2cc(NC(=O)C3CCCCC3)ccc2O1 | nt | -7 | nt
nt | nt | nt | nt | COc1ccc(NC(=O)N(C)C[C@H]2Oc3ccc(NS(C)(=O)=O)cc3C(=O)N([C@@H](C)CO)C[C@@H]2C)cc1 | nt | -32 | nt
nt | nt | nt | nt | C[C@H]1CN([C@@H](C)CO)C(=O)c2cccc(NS(=O)(=O)c3cn(C)cn3)c2O[C@H]1CN(C)C(=O)Nc1cccc2ccccc12 | nt | 5 | nt
nt | nt | nt | nt | Cc1ccc(S(=O)(=O)N(C)C[C@H]2OCCCC[C@H](C)Oc3ccc(NS(=O)(=O)c4ccc(Cl)cc4)cc3C(=O)N([C@H](C)CO)C[C@@H]2C)cc1 | nt | 3 | nt
nt | nt | nt | nt | COc1ccc(NC(=O)Nc2ccc3c(c2)C(=O)N([C@@H](C)CO)C[C@H](C)[C@H](CN(C)S(=O)(=O)c2ccc(C)cc2)OCCCC[C@H](C)O3)cc1 | nt | 3 | nt
1 | -1 | 21 | -24 | COc1ccccc1NC(=O)c1ccc(-c2nn(C)c(=O)c3ccccc23)cc1 | 8 | nt | nt
nt | nt | nt | nt | Cn1nc(CC(=O)Nc2ccc(Oc3ccccc3)cc2)c2ccccc2c1=O | nt | nt | i
0 | 16 | 7 | nt | COc1cccc(OC)c1NC(=O)Cc1nn(C)c(=O)c2ccccc12 | -3 | -10 | 5
nt | nt | nt | nt | C[C@@H]1CN([C@@H](C)CO)C(=O)c2cc(NS(C)(=O)=O)ccc2O[C@H]1CN(C)S(=O)(=O)c1cccs1 | nt | -5 | nt
-1 | 7 | 0 | -8 | COc1ccccc1NC(=O)c1ccc(NS(=O)(=O)c2c(C)noc2C)cc1 | 5 | 442* | -4
-2 | -1 | 5 | -11 | COc1ccc(NC(=O)c2ccc(NS(=O)(=O)c3c(C)noc3C)cc2)cc1OC | 1 | 1 | nt
nt | nt | nt | nt | O=C(NCC[C@@H]1CC[C@H](NC(=O)c2cnccn2)[C@@H](CO)O1)Nc1ccc(F)cc1 | nt | 159* | i
nt | nt | nt | nt | O=C(Nc1ccc(Cl)cc1)N[C@H]1CC[C@H](CCNC(=O)c2ccccc2F)O[C@H]1CO | nt | 91* | i

# ALR H2O2 inh: what is marked active above
MC4R ag barr | NALP1 yeast inh | MC4R antag cAMP | ALR H2O2 inh | SMILES | HDAC3 inh | Yeast UUG start-1 | Yeast UUG start-2
1 | 16 | 8 | 94* | O=C1Nc2ccc([N+](=O)[O-])cc2OC1CCN1CCN(c2ccccc2)CC1 (stereo not drawn) | 4 | -25 | -6
